Assay results published in ChEMBL document CHEMBL3286155, “Tricyclic pyrazoles. Part 6. Benzofuro[3,2-c]pyrazole: a versatile architecture for CB2 selective ligands” (Eur J Med Chem, 2014).

The chains behind the UniProt entries cited, without tags or fusion partners.
UniProt P21554, whole entry: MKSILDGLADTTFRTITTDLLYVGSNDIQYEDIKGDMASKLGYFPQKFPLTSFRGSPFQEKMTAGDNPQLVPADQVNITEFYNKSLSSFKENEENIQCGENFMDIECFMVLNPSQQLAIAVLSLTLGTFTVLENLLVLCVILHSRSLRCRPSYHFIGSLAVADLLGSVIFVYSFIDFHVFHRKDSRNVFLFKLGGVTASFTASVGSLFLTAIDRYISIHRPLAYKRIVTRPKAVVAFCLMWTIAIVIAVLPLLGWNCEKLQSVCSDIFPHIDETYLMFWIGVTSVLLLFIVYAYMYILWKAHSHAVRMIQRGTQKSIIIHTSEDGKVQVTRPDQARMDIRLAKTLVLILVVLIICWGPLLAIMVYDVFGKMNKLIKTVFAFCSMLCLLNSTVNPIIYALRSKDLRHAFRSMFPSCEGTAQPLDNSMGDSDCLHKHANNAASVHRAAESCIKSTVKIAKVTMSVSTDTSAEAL

Molecular target: Cannabinoid receptor 1 (Homo sapiens, UniProt P21554)

`Cc1ccc(Cn2nc(C(=O)N[C@@H]3C(C)(C)[C@@H]4CC[C@@]3(C)C4)cc2-c2ccc(Cl)c(C)c2)cc1` [SR-144528] was tested, and the Ki was 70 nM.
